Experimental data published in BindingDB's records for US9556117.
This is a selection: effects in other tests are not listed, and their absence says nothing.

Chains of the proteins cited; added tags and fusions are not shown. Lines headed by an entry give the natural chain unless they say otherwise; changes in a name come on top.
UniProt Q99572, whole entry: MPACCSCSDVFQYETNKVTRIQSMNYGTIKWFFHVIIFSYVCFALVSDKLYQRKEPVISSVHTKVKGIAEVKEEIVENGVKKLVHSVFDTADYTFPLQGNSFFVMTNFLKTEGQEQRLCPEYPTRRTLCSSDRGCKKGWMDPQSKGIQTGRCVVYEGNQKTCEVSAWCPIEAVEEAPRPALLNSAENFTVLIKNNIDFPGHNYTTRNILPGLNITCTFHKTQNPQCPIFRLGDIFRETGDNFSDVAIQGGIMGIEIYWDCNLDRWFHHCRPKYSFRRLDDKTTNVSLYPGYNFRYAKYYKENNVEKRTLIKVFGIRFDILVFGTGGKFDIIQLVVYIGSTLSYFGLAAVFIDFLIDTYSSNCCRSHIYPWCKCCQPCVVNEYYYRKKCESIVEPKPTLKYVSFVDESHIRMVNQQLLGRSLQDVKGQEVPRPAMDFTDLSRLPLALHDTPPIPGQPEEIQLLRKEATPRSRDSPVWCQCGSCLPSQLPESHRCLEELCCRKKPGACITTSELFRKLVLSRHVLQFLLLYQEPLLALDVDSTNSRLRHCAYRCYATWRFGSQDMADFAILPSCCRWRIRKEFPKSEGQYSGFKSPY

Biological target: P2X purinoceptor 7 (Homo sapiens, UniProt Q99572)

Q: With `CN(C)C1(CNC(=O)c2ccc3[nH]ccc3c2Cl)CCCCC1` as the molecule, how does the IC50 read?
A: 1.08 µM
